## Binding of CDR-mutated scFvs to a peptide of the spike HR2 region

Target peptide (SARS-CoV-2 spike, HR2 region): PDVDLGDISGINAS

Each scFv is VH, the linker GGGGSGGGGSGGGGS, VL, as in the parent Ab-14, and differs from it in the CDRs of the heavy chain only.
VH: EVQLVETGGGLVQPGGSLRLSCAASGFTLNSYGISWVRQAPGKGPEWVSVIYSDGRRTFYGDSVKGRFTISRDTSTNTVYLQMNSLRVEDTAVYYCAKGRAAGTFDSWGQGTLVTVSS
VL: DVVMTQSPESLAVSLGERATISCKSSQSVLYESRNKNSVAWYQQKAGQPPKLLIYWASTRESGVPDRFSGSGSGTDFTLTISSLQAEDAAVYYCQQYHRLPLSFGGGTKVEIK

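The starting antibody came from a phage panning campaign against this peptide. The variants were designed computationally from a first round of random CDR variants and then made and measured. Several design methods are mixed in this list. AlphaSeq pools MATa yeast showing the antibodies with MATalpha yeast showing the peptide. The frequency of each diploid, read from paired DNA barcodes, reflects how well the two displayed proteins bind. A regression on co-assayed BCL2-family reference pairs converts the normalised counts of each replicate to an apparent Kd. Mating was done six times.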

Variants are written as CDR1, CDR2 and CDR3 of the heavy chain (limits as in the source). Parent: GFTLNSYGIS, VIYSDGRRTFYGDSVK, GRAAGTFDS. The Kd shown is the geometric mean over detected replicates; a lower Kd is a better binder. "nd" marks a missing value. The strain was present, yet no cells mated with the target were sequenced in any replicate, which points to weak or no binding. Of ten entries with the parent sequence, four were seen in most replicates (averages 2.2 nM to 240 nM), three in one and three in none, so single entries are noisy. The authors averaged sequences with at least three values out of six and counted those with two or fewer as poor binders. Values of this round are not directly comparable with the first-round values of the same sequences. Some sequences occur more than once in the pool; their replicates are pooled. Nonspecific signal, from three strains lacking the peptide, appeared in 1% of pairings of all heavy chain designs, centred on 120 nM (5% of these signals below 7.0 nM); values are not corrected for it. Also given: how often the same scFv was detected with the empty control strains.

With GFDLNTYGIS, VIYSDGRRTFYDDSVK, GKAAGTFDS the result was 2.2 nM (6 of 6 replicates; controls 0 of 18).
With GFTLNSYGIS, VIYSDGRRTFYGDSVK, GKIAGTFDT the result was 37 nM (5 of 6 replicates; controls 0 of 18).
With GFTLNEYGIS, VIYSDGRRTFYNDSVK, GRFAGTFDS the result was 3.0 nM (1 of 6 replicates; controls 0 of 18).
With GFTLNMYGIS, VIYSDGRRTFYGDSVK, GRVAGTFDS the result was 8.6 nM (6 of 6 replicates; controls 0 of 18).
With GFDLNEYGIS, VIYADGRRTFYTDSVK, GQFAGTFDV the result was 430 pM (6 of 6 replicates; controls 0 of 18).
With GDKLEDYGIS, VIYADGRRSAYVDAVK, GEYAGYFQV the result was nd (0 of 6 replicates; controls 0 of 18).
With GFTLRSYGIS, VIYSDGKRTFYGDSVK, GRNAGTFDS the result was 360 nM (3 of 6 replicates; controls 0 of 18).
With GFRLHSYGIS, VIYSDGYRTFYSDSVK, GRAAGQNDS the result was 4.7 nM (1 of 6 replicates; controls 0 of 18).
With GFNLNEYGIS, VIYADGRRTAYADSVK, GQIAGTFDV the result was 15 nM (6 of 6 replicates; controls 0 of 18).
With GFELNSYGIS, VIYSDGRRTFYADSVK, GRNAGTFDS the result was 4.9 nM (6 of 6 replicates; controls 0 of 18).
With GFNLDEYGIS, VIYADGMRTAYADSVK, GNQAGTFDI the result was 620 pM (6 of 6 replicates; controls 0 of 18).
With GFHLNSYGIS, VIYSDGKRTFYADSVK, GQAAGTFDS the result was 6.1 nM (5 of 6 replicates; controls 0 of 18).
With GFELNEYGIS, VIYSDGRRTFYHDSVK, GRAAGFFDS the result was nd (0 of 6 replicates; controls 0 of 18).
With GFDLNEYGIS, VIYADGKRTAYVDSVK, GETAGTFDV the result was nd (0 of 6 replicates; controls 0 of 18).
With GFCLNDYGIS, VIYSDGRRTMYIDSVK, GRAAGTFDS the result was nd (0 of 6 replicates; controls 0 of 18).
With GFTLNSYGIS, VIYSDGRRTFYGDSVK, DRAAGTFLS the result was 3.3 nM (1 of 6 replicates; controls 1 of 18).
With GFTLNSYGIS, VIYSDGRRTFYGDSVK, GEGAGTFDS the result was 95 nM (5 of 6 replicates; controls 0 of 18).
With GFDLDEYGIS, VIYADGMRTAYSDKVK, GNVAGTFDV the result was 1.5 nM (6 of 6 replicates; controls 0 of 18).
With GFQLNSYGIS, VIYSDGRRTFYGDQVK, GRTAGTFDT the result was 23 nM (6 of 6 replicates; controls 0 of 18).
With GFNLDEYGIS, VIYADGRRTFYSDSVK, GEVAGTFDF the result was 300 pM (6 of 6 replicates; controls 0 of 18).
With GFTLNSYGIS, VIYSDGRRTFYGDSVK, GRAAGTFDN the result was nd (0 of 6 replicates; controls 0 of 18).
With GFDLNEYGIS, VIYADGVRTAYADSVK, GGNAGTFDQ the result was 640 pM (6 of 6 replicates; controls 0 of 18).
With GFHLNEYGIS, VIYSDGRRTFYGDSVK, GKAAGTFDS the result was 1.6 nM (6 of 6 replicates; controls 0 of 18).
With GFDIKEQGIS, VIYADGMRTFYSEKVK, GQNSNGFDM the result was 4.2 nM (6 of 6 replicates; controls 1 of 18).
With GKDIEEYGIS, VIYADGVRAAYADSVK, GINMDIMTV the result was 110 nM (3 of 6 replicates; controls 1 of 18).

Further variants, results first:

Result nd (0 of 6 replicates; controls 0 of 18), variant GFSLEEYGIS, VIYADGKRTAYVNAVK, GTWGAFGLG.
Result 600 nM (1 of 6 replicates; controls 0 of 18), variant GFDLNSYGIS, VIYSDGRRTFYGDSVK, GRAANTFDQ.
Result 450 pM (6 of 6 replicates; controls 0 of 18), variant GFDLNEYGIS, VIYADGMRTAYSDSVK, GEIAGTFDV.
Result 1.2 nM (6 of 6 replicates; controls 0 of 18), variant GFDLNSYGIS, VIYSDGRRTFYGDSVK, GQAAGTFDA.
Result nd (0 of 6 replicates; controls 0 of 18), variant GFTLNSYGIS, VIYSDGRRTFYGDSVK, GQLAGTFDR.
Result nd (0 of 6 replicates; controls 0 of 18), variant GFTLNSYGIS, VIYSDGKRTFYGDSVK, GRAAGTFES.
Result 550 pM (6 of 6 replicates; controls 0 of 18), variant GFDLNEYGIS, VIYADGMRKAYSDSVK, GNVAGTFDQ.
Result 320 pM (6 of 6 replicates; controls 0 of 18), variant GFDLDEYGIS, VIYADGRRTFYADSVK, GTNAGTFDK.
Result 6.3 nM (4 of 6 replicates; controls 0 of 18), variant GFELNDYGIS, VIYSDGRRTFYIDSVK, GKAAGTFDS.
Result nd (0 of 6 replicates; controls 0 of 18), variant GFTLNSYGIS, VIYADGRRTMYGDSVK, GREAHTFDS.
Result nd (0 of 6 replicates; controls 0 of 18), variant KFQLNEYGIS, VIYSDGRRTFYGDSVK, GRCAGTFDS.
Result nd (0 of 6 replicates; controls 0 of 18), variant GFTLNDYGIS, VIYSDGHRTFYGDSVK, GRAALTFIS.
Result nd (0 of 6 replicates; controls 0 of 18), variant GFTLNEYGIS, VIYSDGRRTFYTDSVK, GRMAGTFVS.
Result 180 nM (2 of 6 replicates; controls 0 of 18), variant GFTLNSYGIS, VIYSDGRRTFYGDKVK, GRAPGTFDS.
Result 3.9 pM (6 of 6 replicates; controls 0 of 18), variant GFDLNEYGIS, VIYADGSRKAYADSVK, GNNAGTFDV.
Result 810 pM (6 of 6 replicates; controls 0 of 18), variant GFELNEYGIS, VIYSDGRRTFYGDSVK, GKHAGTFDS.
Result nd (0 of 6 replicates; controls 0 of 18), variant GFDLNSYGIS, VIYSDGRRTFYSDSVK, GRVAGWFDS.
Result 410 nM (2 of 6 replicates; controls 0 of 18), variant GFDLQEYGIS, VIYADGVREAYTESVK, GNSGGRDML.
Result 150 nM (4 of 6 replicates; controls 1 of 18), variant GFTLNDYGIS, VIYSDGRRTFYHDSVK, GFASGTFDS.
Result 2.1 nM (6 of 6 replicates; controls 1 of 18), variant GFTLNDYGIS, VIYSDGRRTFYSDSVK, GRAGGTFDS.
Result 27 nM (5 of 6 replicates; controls 0 of 18), variant GFTLNEYGIS, VIYSDGRRTFYQDSVK, GRFAGTFDS.
Result 180 pM (6 of 6 replicates; controls 0 of 18), variant GFDLNEYGIS, VIYADGMRTAYADKVK, GNTAGTFDQ.
Result 4.9 nM (6 of 6 replicates; controls 0 of 18), variant GFDLNSYGIS, VIYSDGRRTFYGDRVK, GRQAGTFDS.
Result 8.7 nM (6 of 6 replicates; controls 0 of 18), variant GFTLNEYGIS, VIYSDGRRTFYGDSVK, GRMAGTFDI.
Result 12 nM (12 of 12 replicates; controls 2 of 36), variant GFTLNDYGIS, VIYSDGRRTFYGDSVK, GRAAGTFDL.

Picked from the list: the 8 lowest averages where every replicate gave a value.

GFDLNEYGIS, VIYADGSRKAYADSVK, GNNAGTFDV: 3.9 pM (6 of 6 replicates; controls 0 of 18).
GFDLNEYGIS, VIYADGMRTAYADKVK, GNTAGTFDQ: 180 pM (6 of 6 replicates; controls 0 of 18).
GFNLDEYGIS, VIYADGRRTFYSDSVK, GEVAGTFDF: 300 pM (6 of 6 replicates; controls 0 of 18).
GFDLDEYGIS, VIYADGRRTFYADSVK, GTNAGTFDK: 320 pM (6 of 6 replicates; controls 0 of 18).
GFDLNEYGIS, VIYADGRRTFYTDSVK, GQFAGTFDV: 430 pM (6 of 6 replicates; controls 0 of 18).
GFDLNEYGIS, VIYADGMRTAYSDSVK, GEIAGTFDV: 450 pM (6 of 6 replicates; controls 0 of 18).
GFDLNEYGIS, VIYADGMRKAYSDSVK, GNVAGTFDQ: 550 pM (6 of 6 replicates; controls 0 of 18).
GFNLDEYGIS, VIYADGMRTAYADSVK, GNQAGTFDI: 620 pM (6 of 6 replicates; controls 0 of 18).

Source: Li et al. 2023 (doi:10.1038/s41467-023-39022-2), MIT Lincoln Laboratory and A-Alpha Bio; data file from the FLAb repository.